Several values for one entry are separate records, joined by “and”; a condition that tells them apart may be missing. Equal values may be shown once.
Columns and labels:
[1] = Plasma pharmacokinetics over 2 h after oral ibogaine in wild-type, Abcg2-/- and Abcb1a/1b;Abcg2-/- mice; format: in vivo; conditions: oral 10 mg/kg ibogaine; for Cmax / Tmax / AUC0-2h: plasma; for Cmax / Tmax: 2 h experiment; for Cmax / AUC0-2h: mean ± SD; for Tmax: median (range); for AUC0-2h: n = 7
Protocol: (§1) To study the influence of drug uptake and efflux transporters on the pharmacokinetics of ibogaine and its metabolites, we conducted a 2 h experiment, while for the assessment of CYP3A impact, the experiments were terminated at 8 h. In each experiment, six to seven mice were used per strain. Ibogaine dissolved in DMSO:saline vehicle (1:9, v/v) was orally administered to the mice by gavage into the stomach, using a blunt-ended needle, at a single dose of 10 mg/kg (10 μL/g body weight). To reduce variation in absorption upon oral administration, mice were fasted for 2–3 h before dosing. Approximately 50 μL of blood was collected from the tip of the tail in heparinized capillary tubes (Sarstedt AG & Co., Nümbrecht, Germany) at 0.125, 0.25, 0.5 and 1 h (2 h experiment), or 0.25, 0.5, 1, 2, and 4 h (8 h experiment). For the 8 h experiment, 2 h after ibogaine administration, mice had ad libitum supply of standard chow and water again. At either 2 or 8 h after dosing, mice were deeply anesthetized with isoflurane (3%), followed by cardiac puncture to collect blood (at least 600 μL) in Eppendorf tubes using heparin as an anticoagulant. The mice were then sacrificed by cervical dislocation, and tissues including the brain, liver (without gallbladder), kidneys, spleen, small intestine together with the fecal content (SIWC), heart, and subcutaneous inguinal white adipose tissue were collected and weighed. For the 2 h experiment, the gallbladder with content was also (separately) collected in an Eppendorf tube and weighed. Plasma was obtained from blood samples by centrifugation at 9,000 g for 6 min at 4 °C. Tissue homogenates (except gallbladder) were obtained using the Fast Prep-24 5G homogenizer (MP Biomedicals Inc., Santa Ana, CA, United States). Before homogenization, Bovine Serum Albumin (BSA, Fraction V) was dissolved at a concentration of 2% (w/v) in distilled water. Three mL of ice-cold 2% BSA were added to liver and SIWC; 2 ml to kidneys; 1 ml to brain, spleen, and heart; and 2–3 ml to the white adipose tissue (depending on the tissue weight). For the gallbladder, 150 μL of 2% BSA was added; then, the samples were centrifuged (9,000 x g, 4°C, 6 min), and only the supernatant was collected for analysis. Both plasma and tissue samples were kept at −70°C in amber-colored Eppendorf tubes until analysis.
(§2) Ibogaine, noribogaine, and noribogaine glucuronide concentrations in plasma and tissue samples were determined using a liquid chromatography with tandem mass spectrometry (LC-MS/MS) method, validated for human plasma, mouse plasma, and mouse tissues. Since the concentration of ibogaine and its metabolites can rapidly decline at room temperature with daylight exposure, special attention was paid during sample handling to avoid photodegradation of the compounds.
(§3) A volume of 50 µL human plasma sample, a 5-fold diluted mouse plasma sample (10 uL + 40 uL control human plasma), or 100 µL homogenized tissue sample were processed. For the quantification, stable isotope labelled internal standards (IS) Ibogaine-^13C-d3 (for ibogaine) and Noribogaine-d4 (for noribogaine and noribogaine glucuronide) were used. To the 50 uL plasma samples, 20 uL of a working solution containing both internal standards at a concentration of 10 ng/ml in methanol (WIS10) was added. Sample pre-treatment involved protein precipitation with 150 uL of acetonitrile-methanol (1:1, v/v). For the tissue homogenates (100 uL sample aliquots), 40 uL of WIS10 was added, and 300 uL precipitation reagent as sample cleanup. After centrifuging the samples (10 min, 4°C, 15,000 x g), 100 µL of the supernatant was transferred to an amber-colored autosampler vial with insert. Then 100 µL of 4 mM ammonium formate pH 3.5 in water was added, and after vortex mixing, the extracts were injected (5 uL) onto a UPLC system (Acquity UPLC I-Class IVD system, Waters, Milford, MA, United States) equipped with an Acquity UPLC HSS T3 Column (150 × 2.1 mm ID, 1.8 µm). […]

[2] = Plasma pharmacokinetics over 2 h after oral ibogaine in wild-type, Oatp1a/1b-/-, Oatp1a/1b-/-;1B1tg and Oatp1a/1b-/-;1B3tg mice; format: in vivo; conditions: oral 10 mg/kg ibogaine; for Cmax / Tmax / AUC0-2h: plasma; for Cmax / Tmax: 2 h experiment; for Cmax / AUC0-2h: mean ± SD; for Tmax: median (range); for AUC0-2h: n = 7
Protocol: as §1, §2, §3

[3] = Tissue distribution 2 h after oral ibogaine in wild-type, Abcg2-/- and Abcb1a/1b;Abcg2-/- mice; format: in vivo
Protocol: as §1, §2, §3

[4] = Tissue accumulation 2 h after oral ibogaine in wild-type and Oatp1a/1b-deficient mouse strains; format: in vivo; conditions: Oatp1a/1b-/- mice compared to WT; tissue concentration relative to plasma AUC0-2h; oral 10 mg/kg ibogaine
Protocol: To study the influence of drug uptake and efflux transporters on the pharmacokinetics of ibogaine and its metabolites, we conducted a 2 h experiment, while for the assessment of CYP3A impact, the experiments were terminated at 8 h. In each experiment, six to seven mice were used per strain. Ibogaine dissolved in DMSO:saline vehicle (1:9, v/v) was orally administered to the mice by gavage into the stomach, using a blunt-ended needle, at a single dose of 10 mg/kg (10 μL/g body weight). To reduce variation in absorption upon oral administration, mice were fasted for 2–3 h before dosing. […]
Ibogaine, noribogaine, and noribogaine glucuronide concentrations in plasma and tissue samples were determined using a liquid chromatography with tandem mass spectrometry (LC-MS/MS) method, validated for human plasma, mouse plasma, and mouse tissues. […]
A volume of 50 µL human plasma sample, a 5-fold diluted mouse plasma sample (10 uL + 40 uL control human plasma), or 100 µL homogenized tissue sample were processed. For the quantification, stable isotope labelled internal standards (IS) Ibogaine-^13C-d3 (for ibogaine) and Noribogaine-d4 (for noribogaine and noribogaine glucuronide) were used. […]

[5] = Observation of abnormal behavior or signs of acute toxicity after oral ibogaine; format: in vivo, mice; conditions: oral 10 mg/kg ibogaine; whole 8 h experiment and 2 h experiments; all studied mouse strains
Protocol: To study the influence of drug uptake and efflux transporters on the pharmacokinetics of ibogaine and its metabolites, we conducted a 2 h experiment, while for the assessment of CYP3A impact, the experiments were terminated at 8 h. In each experiment, six to seven mice were used per strain. Ibogaine dissolved in DMSO:saline vehicle (1:9, v/v) was orally administered to the mice by gavage into the stomach, using a blunt-ended needle, at a single dose of 10 mg/kg (10 μL/g body weight). To reduce variation in absorption upon oral administration, mice were fasted for 2–3 h before dosing. Approximately 50 μL of blood was collected from the tip of the tail in heparinized capillary tubes (Sarstedt AG & Co., Nümbrecht, Germany) at 0.125, 0.25, 0.5 and 1 h (2 h experiment), or 0.25, 0.5, 1, 2, and 4 h (8 h experiment). For the 8 h experiment, 2 h after ibogaine administration, mice had ad libitum supply of standard chow and water again. At either 2 or 8 h after dosing, mice were deeply anesthetized with isoflurane (3%), followed by cardiac puncture to collect blood (at least 600 μL) in Eppendorf tubes using heparin as an anticoagulant. […]

[6] = ref Luz and Mash, 2021; cited from earlier work
[7] = in 24 h in rats; ref Mačiulaitis et al., 2008; cited from earlier work
[8] = Abcb1a/1b;Abcg2-/- mice compared to WT, 2 h after oral 10 mg/kg ibogaine

ibogaine [reference compound]
Fold increase AUC0-2h ([1]; Abcb1a/1b;Abcg2-/- mice vs wild-type): 2.3
Fold increase AUC0-2h ([1]; Abcg2-/- mice vs wild-type): 1.4
Cmax ([1]; Abcb1a/1b;Abcg2-/- mice): 15.92 ± 9.16 ng/mL
Tmax ([1]; Abcb1a/1b;Abcg2-/- mice): 0.25 (0.125–0.25) h
Cmax ([1]; Abcg2-/- mice): 9.15 ± 3.69 ng/mL
Tmax ([1]; Abcg2-/- mice): 0.125 (0.125–0.50) h
AUC0-2h ([1]; female Abcb1a/1b;Abcg2-/- mice): 15.2 ± 8.06 ^* h*ng/mL
AUC0-2h ([1]; female Abcg2-/- mice): 9.35 ± 3.47 ng·h/mL
AUC0-2h ([1]; female wild-type mice): 6.48 ± 2.40 ng·h/mL
Cmax ([1]; wild-type mice): 4.92 ± 2.34 ng/mL
Tmax ([1]; wild-type mice): 0.25 (0.125–2) h
Fold increase AUC0-2h ([1]; wild-type mice (reference)): 1.0
Fold increase AUC0-2h ([2]; Oatp1a/1b-/- mice vs wild-type): 2.1
Fold increase AUC0-2h ([2]; Oatp1a/1b-/-;1B1tg mice vs wild-type): 2.3
Fold increase AUC0-2h ([2]; Oatp1a/1b-/-;1B3tg mice vs wild-type): 1.6
Cmax ([2]; Oatp1a/1b-/- mice): 13.6 ± 8.6 ng/mL
Tmax ([2]; Oatp1a/1b-/- mice): 0.125 (0.125–0.50) h
Cmax ([2]; Oatp1a/1b-/-;1B1tg mice): 18.3 ± 15.0 ng/mL
Tmax ([2]; Oatp1a/1b-/-;1B1tg mice): 0.125 h
Cmax ([2]; Oatp1a/1b-/-;1B3tg mice): 18.0 ± 17.7 ng/mL
Tmax ([2]; Oatp1a/1b-/-;1B3tg mice): 0.125 (0.125–0.25) h
AUC0-2h ([2]; female Oatp1a/1b-/- mice): 13.6 ± 6.97 ng·h/mL
AUC0-2h ([2]; female Oatp1a/1b-/-;1B1tg mice): 14.7 ± 11.3 ng·h/mL
AUC0-2h ([2]; female Oatp1a/1b-/-;1B3tg mice): 10.6 ± 8.27 ng·h/mL
AUC0-2h ([2]; female wild-type mice): 6.48 ± 2.40 ng·h/mL
Cmax ([2]; wild-type mice): 4.92 ± 2.34 ng/mL
Tmax ([2]; wild-type mice): 0.25 (0.125–2) h
Fold increase AUC0-2h ([2]; wild-type mice (reference)): 1.0
fold increase in brain-to-plasma ratio [3, 8]: 1.5 fold
fold increase in heart-to-plasma ratio [3, 8]: 1.3 fold
fold increase in kidney-to-plasma ratio [3, 8]: 1.6 fold
fold decrease in total amount (% of dose) in SIWC corrected for plasma AUC over 2 h ([3]; Abcb1a/1b;Abcg2-/- mice compared to WT, small intestine with fecal content, oral 10 mg/kg ibogaine, 10 mg/kg): ~2 fold and 2.2 fold
brain-to-plasma ratio ([3]; Abcb1a/1b;Abcg2-/- mice, 2 h after oral 10 mg/kg ibogaine): 5.2
adipose tissue-to-plasma distribution ratio ([3]; WT mice, inguinal white adipose tissue, 2 h after oral 10 mg/kg ibogaine): 45.3
brain-to-plasma ratio ([3]; wild-type mice, 2 h after oral 10 mg/kg ibogaine, 10 mg/kg): 3.4 and > 3
fold reduction in liver accumulation [4]: > 2 fold
abnormal behavior or signs of acute toxicity (such as tremors or flat body posture) [5]: no abnormal behavior or signs of acute toxicity
half-life in plasma [6]: 2 to 6 h
excreted via urine and feces, % of the administered dose [7]: 60–70%

From publication PMC8931498, “Drug Transporters ABCB1 (P-gp) and OATP, but not Drug-Metabolizing Enzyme CYP3A4, Affect the Pharmacokinetics of the Psychoactive Alkaloid Ibogaine and its Metabolites” (Frontiers in Pharmacology, 2022)
